{"source": "the NIST ThermoML archive (doi:10.1016/j.jct.2005.01.002)", "conditions": "101.33 kPa, Liquid", "note": "Numbers after ± are expanded uncertainties.", "data": [{"smiles": "CCCCOCCCC", "note": "[dibutyl ether]", "values": [{"measurement": "mass density", "setting": "298.15 K", "value": "764.08 ± 0.62", "unit": "kg/m3"}, {"measurement": "mass density", "setting": "313.15 K", "value": "750.92 ± 0.63", "unit": "kg/m3"}, {"measurement": "mass density", "setting": "328.15 K", "value": "737.68 ± 0.65", "unit": "kg/m3"}, {"measurement": "mass density", "setting": "343.15 K", "value": "724.25 ± 0.66", "unit": "kg/m3"}, {"measurement": "mass density", "setting": "358.15 K", "value": "710.54 ± 0.68", "unit": "kg/m3"}]}]}
